According to US10941153B2, “Substituted phenethylamine derivatives” (REGENTS OF THE UNIVERSITY OF MINNESOTA, priority 2018, dated 2021):
Read-outs that look alike come from different tables or passages of the source.

By UniProt entry, the sequences of proteins in these tests, tags left out. Residues count along the entry.
UniProt P08908, whole entry: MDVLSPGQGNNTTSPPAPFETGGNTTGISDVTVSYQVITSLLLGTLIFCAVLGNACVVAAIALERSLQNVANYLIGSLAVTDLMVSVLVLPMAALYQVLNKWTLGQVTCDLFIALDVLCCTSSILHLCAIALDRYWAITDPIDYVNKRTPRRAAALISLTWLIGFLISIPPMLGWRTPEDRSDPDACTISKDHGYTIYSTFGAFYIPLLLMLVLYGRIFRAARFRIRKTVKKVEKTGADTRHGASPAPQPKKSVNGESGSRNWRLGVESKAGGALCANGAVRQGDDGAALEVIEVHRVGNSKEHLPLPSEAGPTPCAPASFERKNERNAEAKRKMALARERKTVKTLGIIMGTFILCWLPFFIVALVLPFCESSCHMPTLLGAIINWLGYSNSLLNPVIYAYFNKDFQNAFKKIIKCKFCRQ
UniProt Q99720, whole entry: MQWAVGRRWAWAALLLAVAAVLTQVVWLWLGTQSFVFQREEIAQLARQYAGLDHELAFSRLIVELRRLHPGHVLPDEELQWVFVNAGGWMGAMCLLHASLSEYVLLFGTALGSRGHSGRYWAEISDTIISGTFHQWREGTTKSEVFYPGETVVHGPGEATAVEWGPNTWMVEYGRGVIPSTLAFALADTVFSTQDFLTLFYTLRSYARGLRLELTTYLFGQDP
UniProt P41595, whole entry: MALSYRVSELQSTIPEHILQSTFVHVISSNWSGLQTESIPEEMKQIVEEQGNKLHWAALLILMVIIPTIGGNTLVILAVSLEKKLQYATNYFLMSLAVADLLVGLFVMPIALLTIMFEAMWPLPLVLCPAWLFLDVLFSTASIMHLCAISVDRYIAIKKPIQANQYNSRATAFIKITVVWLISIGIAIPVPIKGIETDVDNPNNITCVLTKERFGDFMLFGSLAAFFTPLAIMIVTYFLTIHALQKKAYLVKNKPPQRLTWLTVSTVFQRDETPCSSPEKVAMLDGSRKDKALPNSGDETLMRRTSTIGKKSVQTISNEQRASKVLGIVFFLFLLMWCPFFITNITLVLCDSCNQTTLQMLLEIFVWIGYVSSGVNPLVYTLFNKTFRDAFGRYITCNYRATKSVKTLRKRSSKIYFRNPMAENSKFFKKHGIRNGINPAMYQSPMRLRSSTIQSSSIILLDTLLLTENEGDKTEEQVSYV
UniProt P34969, 1-445 isoform 2: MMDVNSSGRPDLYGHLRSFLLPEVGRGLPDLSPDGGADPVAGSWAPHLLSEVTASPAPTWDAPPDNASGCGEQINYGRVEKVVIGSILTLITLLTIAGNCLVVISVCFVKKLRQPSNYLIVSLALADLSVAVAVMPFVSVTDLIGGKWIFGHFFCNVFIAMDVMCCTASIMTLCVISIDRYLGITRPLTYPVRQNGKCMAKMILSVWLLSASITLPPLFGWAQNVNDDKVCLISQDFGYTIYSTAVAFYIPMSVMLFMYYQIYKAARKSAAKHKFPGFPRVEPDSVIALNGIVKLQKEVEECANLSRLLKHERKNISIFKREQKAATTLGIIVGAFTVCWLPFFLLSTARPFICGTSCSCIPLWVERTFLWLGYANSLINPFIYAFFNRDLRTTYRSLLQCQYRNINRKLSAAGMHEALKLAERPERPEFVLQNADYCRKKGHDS

Experiments:
[1] = target: 5-HT1A receptor (Homo sapiens, UniProt P08908); assay: PDSP GPCR binding affinity, 5-HT1A
[2] = system: σ2 receptor; assay: PDSP binding affinity, sigma-2; parameters: species or system human; settings: read-out: Ki, Sigma-2
[3] = target: σ1 receptor (UniProt Q99720); assay: PDSP binding affinity, sigma-1; parameters: species or system human
[4] = target: 5-HT2B receptor (Homo sapiens, UniProt P41595); assay: PDSP GPCR binding affinity, 5-HT2B
Description: In particular, the Ki (nM) value is provided. […] FIGS. 14-15 are graphical views of Log P vs. Ki, 5-HT2B receptor and Log P vs. Ki, sigma-1 receptor, respectively, summarizing the data presented in Table 6, according to one or more embodiments of the present disclosure. Assay data for compound 53545 against 5-HT7A receptor is presented in FIG. 18 and Tables 8-9 provided below:
Assay data for compound 53529 against 5-HT2B receptor is presented in FIG. 22 and Tables 12-13 provided below: […]

[5] = system: human GPCR (serotonin, adrenergic, dopamine, histamine, muscarinic, opioid, sigma and others); assay: PDSP broad GPCR screen; settings: wider array of GCPR, Table 5
[6] = system: 661W cells; assay: Neuroprotection in 661W retinal cells under oxidative stress
[7] = system: σ1 receptor; assay: PDSP binding affinity, sigma-1; parameters: species or system human
[8] = target: 5-HT7 receptor (Homo sapiens, UniProt P34969); assay: PDSP GPCR binding affinity, 5-HT7
[9] = read-out: Ki, Target 5-HT1A (second line so labelled in Tables 9, 11, 13), second of three table lines printed as 5-HT1A
[10] = read-out: Ki, Target 5-HT1A (third line so labelled in Tables 9, 11, 13), third of three table lines printed as 5-HT1A

Question: How did the Ki ([1]; read-out: Ki, 5-HT1A) turn out when `CC[C@H]1c2ccc3ccccc3c2OC[C@@]1(C)N` (relative stereo) was run?
Answer: The Ki was 2.2 µM.

Question: And the Ki [1, 9]?
Answer: The Ki was 0.0034 µM.

Question: And the Ki [1, 10]?
Answer: Its Ki is 0.96 µM.

Question: What about the Ki [2] of the same compound?
Answer: The Ki was 0.51 µM.

Question: And the Ki ([3]; read-out: Ki, Sigma-1)?
Answer: Its Ki is 3.9 µM.

Question: And the Ki ([4]; read-out: Ki (Table 12), 5-HT2B receptor, competition binding curve, SB 206553 as reference)?
Answer: The Ki was 0.00341 µM.

Question: And the “selectivity for 5-HT2B relative to the σ2 receptor” value ([4]; σ2 was the second most sensitive GPCR assayed)?
Answer: The value was 150 fold.

Question: With `CC[C@H]1c2ccccc2N(c2ccccc2)C[C@@]1(C)N` (relative stereo) as the compound, how does the “selectivity for 5-HT1A over 5-HT7” value [1] read?
Answer: The value was 15 fold.

Question: And the Ki ([1]; read-out: Ki, 5-HT1A)?
Answer: Its Ki is 0.073 µM.

Question: How did the “activity across the additional GCPR investigated” value [5] turn out when `COc1cc(OC)c2c(c1)OC[C@@]1(C)NCC[C@@H]21` (relative stereo) was run?
Answer: The value was “minimal activity”.

Question: What about the “neuroprotective properties in 661W cells” value [6] of the same compound?
Answer: The value was “neuroprotective”.

Question: And the “selectivity for σ1 vs other GCPR (vs 5-HT2B)” value [7]?
Answer: Its value is > 5 fold.

Question: What about the “σ1 vs σ2 selectivity” value [7] of the same compound?
Answer: Its value is > 200 fold.

Question: Which Ki ([1]; read-out: Ki, 5-HT1A) does the source give for `CN1CC[C@H]2c3ccccc3N(c3ccccc3)C[C@]21C` (relative stereo) here?
Answer: The Ki was 0.183 µM.

Question: And the Ki [1, 9]?
Answer: The Ki was 0.203 µM.

Question: And the Ki [1, 10]?
Answer: The Ki was 0.0024 µM.

Question: And the Ki [2]?
Answer: Its Ki is 0.15 µM.

Question: And the “fold selective (Table 9)” value ([8]; compound 53545, among the five targets of Table 9)?
Answer: The value was >50 fold selective.

Question: What about the Ki ([8]; read-out: Ki (Table 8), 5-HT7A receptor, competition binding curve, clozapine as reference) of the same compound?
Answer: Its Ki is 0.00239 µM.

Question: What about the Ki ([3]; read-out: Ki, Sigma-1) of the same compound?
Answer: Its Ki is 0.136 µM.

Question: How did the “selectivity for σ1 relative to the 5-HT2B receptor” value ([7]; 5-HT2B was the second most sensitive receptor assayed) turn out when `CC[C@H]1c2cc(-c3ccccc3)ccc2OC[C@@]1(C)N` (relative stereo) was run?
Answer: Its value is 10 fold.

Question: `C[C@@]12COc3ccc(OCc4ccccc4)cc3[C@@H]1CCN2` (relative stereo) was tested. Which Ki [1, 9] did it give?
Answer: The Ki was 0.448 µM.

Question: And the Ki [2]?
Answer: The Ki was 0.125 µM.

Question: And the Ki ([3]; read-out: Ki (Table 10), sigma-1 receptor, competition binding curve, haloperidol as reference)?
Answer: The Ki was 0.00651 µM.

Question: And the Ki ([3]; read-out: Ki, Sigma-1)?
Answer: The Ki was 0.0068 µM.
